From PubChem BioAssay AID624291 (National Center for Advancing Translational Sciences (NCATS), 2012)
The entries are a selection whose mix differs from that of the whole data set. Some tests of the compounds listed are not included; inactive here does not mean inactive elsewhere. Records with an inconclusive call do not appear. Calls of active or inactive are those of the source. Calls follow the shape of the dose curve; as a rule, active = well fitted activation curve with a large enough effect; inconclusive = small, poorly fitted or top-dose-only effect; inactive = no such curve, though single readings can be large or run the other way.

Test: qHTS for Activators of Integrin-Mediated Alleviation for Muscular Dystrophy;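 also: 100% = response of the positive control SU9516; nearly all actives have a fitted effect of over 60% in size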
Conditions: alpha7betagal myoblasts, beta-gal FDG fluorescence, 48 h; at 38.3 µM (top of the series)

Compound | activation
O=C(NCC1(N2CCCCC2)CCCCC1)c1cc([N+](=O)[O-])ccc1Cl | inactive: -66.7%
CN1[C@@H]2CC[C@H]1CC(OC(=O)C(O)(c1ccccc1)c1ccccc1)C2 (some centres undefined) | inactive: -34.6%
COc1cc(SC)ccc1C(=O)NCC1(N(C)C)CCCCC1 | inactive: 0%
CCN(CC)CC(C)C(C)OC(=O)C(O)(c1ccccc1)c1ccccc1 (centres undefined) | inactive: -8.12%
CC(C)N1C(=O)CC2(CCN(CCOC(=O)C(O)(c3ccccc3)c3ccccc3)CC2)C1=O | inactive: -13%
Cc1ccc(C(=O)NCC2(N3CCCCC3)CCCCC2)cc1 | inactive: -1.81%
CN(C)c1ccc(C(=O)NCC2(N(C)C)CCCCC2)cc1 | inactive: 0.0692%
CN(C)C1CCCC1OC(=O)C(O)(c1ccccc1)c1ccccc1 (centres undefined) | inactive: 5.56%
Cc1ccccc1C(=O)NCC1(N2CCCCC2)CCCCC1 | inactive: -17.5%
O=C(NCC1(N2CCCCC2)CCCCC1)c1cc(F)c(F)cc1Cl | inactive: 0%
C=CCN1CCN(CCOC(=O)C(O)(c2ccccc2)c2ccccc2)CC1 | inactive: 2.67%
COc1ccc(C(=O)NCC2(N(C)C)CCCCC2)cc1 | inactive: 17.7%
O=C(NCC1(N2CCCCC2)CCCCC1)c1cccc(Br)c1 | inactive: -58.9%
CCN1CCCC(OC(=O)C2(O)c3ccccc3C=Cc3ccccc32)C1 (centres undefined) | inactive: 1.52%
Cc1cc(C(=O)NCC2(N3CCCCC3)CCCCC2)ccc1[N+](=O)[O-] | inactive: 3.15%
COc1ccc(Cl)cc1C(=O)NCC1(N(C)C)CCCCC1 | inactive: 0%
COc1cccc(C(=O)NCC2(N3CCCCC3)CCCCC2)c1 | inactive: -6.41%
O=C(NCC1(N2CCCCC2)CCCCC1)c1cccc(Cl)c1 | inactive: -18.9%
O=C(OC1CN2CCC1CC2)C(CO)(c1ccccc1)c1ccccc1 (centres undefined) | inactive: 4.76%
C=C(C)C#CC(O)(C(=O)OC1CCN(C)CC1)c1ccccc1 (centres undefined) | inactive: -12.2%
COc1ccc(Br)c(C(=O)NCC2(N3CCCCC3)CCCCC2)c1 | inactive: 21.4%
O=C(OCCN1CCCC1)C(O)(c1ccccc1)c1ccccc1 | inactive: -35.4%
CC(C)Oc1ccc(C(=O)NCC2(N(C)C)CCCCC2)cc1 | inactive: 2.71%
CN(C)c1cccc(C(=O)NCC2(N(C)C)CCCCC2)c1 | inactive: -27.1%
